Key:
β-secretase I (BACE1) = β-secretase I (BACE1) (Homo sapiens, UniProt P56817); assay: Biochemical assay, automated (CyclOps), BACE1; settings: automated CyclOps bioassay
Procedure: (§1) Unless otherwise indicated all biochemicals were purchased from Sigma-Aldrich Chemical Company, Poole, Dorset, U.K. and non-aqueous solvents, of analytical or higher grade, were purchased from ThermoFisher Scientific, Loughborough, U.K. MilliQ water (Elix 5 & MilliQ Gradient; Merck Millipore) was used as the base aqueous solvent to make up the biological buffers. Base assay buffer was prepared by adding a 50 mM solution of citric acid (1.00244; Merck Biosciences) to stirring solution of 50 mM trisodium citrate (1.06448; Merck Biosciences) until a final pH of 5.0 was achieved. […] All assays were routinely carried out in 384-well assay plates (Costar 4514; Corning Life Sciences) and incubated at 37±1° C. for 60 min. prior to reading the endpoint fluorescence intensity. The (7-methoxyl coumarin-4-yl)acetic acid based substrate β-secretase substrate VI (M2465; Bachem) was prepared as a 1 mM stock in 100% DMSO (D/4121/PB08; ThermoFisher). Assay buffer was prepared by adding DMSO to base buffer to a final concentration of 1% (vol./vol.). β-secretase I (18.64 μM; “BACE1”) and β-secretase II (4.65 μM; “BACE2”) were obtained from Janssen Pharmaceutica, Beerse, Belgium and were stored as frozen aliquots (˜20 μl) and thawed as required.
(§2) Typically 12.5 μl of assay buffer was dispensed to rows B to P of the assay plate. To row A was added 18.75 μl of test compound diluted appropriately in assay buffer. A 6.25 μl aliquot of sample was transferred from row A to row B and the sample mixed three times by pipette. The process was repeated down the plate and 6.25 μl of solution discarded at row N post-mix. Rows O and P were designated as the positive and negative controls. To row P was added 6.25 μl base buffer. To rows A to O was added 6.25 μl enzyme (freshly prepared 40 nM BACE1 or 40 nM BACE2) diluted in base buffer. To initiate the assay 6.25 μl of freshly prepared 80 μM substrate, made up by diluting the 1 mM in 100% DMSO solution into HPLC grade water (Optima W6-212; ThermoFisher), was added to all the wells. The assay plate was covered and incubated at 37±1° C. for 60 min. The fluorescence intensity of the wells was read at 360/405 nm (excitation/emission) utilising a nine reads per well protocol (50 ms integration; density of 3, 0.25 mm spacing; SpectraMAX Paradigm plate reader; TUNE cartridge; SoftMax Pro v 6.3 software; Molecular Devices UK Ltd., Wokingham, Berkshire, UK) and outputting the median value of the nine reads as a text file. Data analysis was carried out using Prism software v 6.3 (GraphPad Inc., San Diego, Calif., USA) using the non-linear regression analysis models supplied by the vendor. For IC50 determinations the four parameter logistic variable slope model was used to fit the raw fluorescence intensity data with the ‘bottom’ fixed to the negative control.
(§3) The CyclOps bioassay module consisted of a fraction collection station, a reagent station, liquid handling robotics, plate store and an integrated plate reader (SpectraMAX Paradigm, TUNE cartridge, SoftMax Pro v 6.3; Molecular Devices). The fraction collection station composed of a 384 well collection plate (P-384-240SQ-C; Axygen, Union City, Calif., USA) mounted on a H-portal carriage (Festo AG & Co. KG, Esslingen, Germany), a syringe drive and a two-way six port injection valve fitted with a 200 μl loop (VICI AG International, Schenkon Switzerland). The output of the injection valve was addressable to all the positions of a 384 well collection plate. The reagent station consisted of hydraulically cooled (10-12° C.) aluminium segments; each manufactured to house a SBS microtiter plate footprint. Independent addressable reagent stations were housed within these sections. Where required, custom aluminium housings were used to accommodate standard laboratory plastic ware (e.g. Eppendorf tubes, Falcon tubes, etc.). As and when required the reagent reservoirs were covered and the lids contained holes through which the Teflon-coated probe could access solutions. […]

By UniProt entry, the sequences of proteins in these tests, tags left out. Residues count along the entry.
UniProt P56817, 46-501 limits assumed: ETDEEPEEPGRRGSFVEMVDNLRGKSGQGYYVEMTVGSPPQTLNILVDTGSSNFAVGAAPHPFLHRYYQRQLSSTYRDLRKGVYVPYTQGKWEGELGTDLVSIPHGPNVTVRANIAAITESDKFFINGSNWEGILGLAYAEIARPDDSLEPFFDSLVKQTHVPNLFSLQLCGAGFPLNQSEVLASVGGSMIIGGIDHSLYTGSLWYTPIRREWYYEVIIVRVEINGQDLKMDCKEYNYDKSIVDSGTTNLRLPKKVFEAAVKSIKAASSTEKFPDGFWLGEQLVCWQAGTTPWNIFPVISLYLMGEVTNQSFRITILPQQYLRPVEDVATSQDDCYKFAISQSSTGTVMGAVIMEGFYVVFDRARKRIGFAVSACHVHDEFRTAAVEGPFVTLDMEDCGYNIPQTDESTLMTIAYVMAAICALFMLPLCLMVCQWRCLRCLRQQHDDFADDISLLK
UniProt Q9Y5Z0, 63-518 limits assumed: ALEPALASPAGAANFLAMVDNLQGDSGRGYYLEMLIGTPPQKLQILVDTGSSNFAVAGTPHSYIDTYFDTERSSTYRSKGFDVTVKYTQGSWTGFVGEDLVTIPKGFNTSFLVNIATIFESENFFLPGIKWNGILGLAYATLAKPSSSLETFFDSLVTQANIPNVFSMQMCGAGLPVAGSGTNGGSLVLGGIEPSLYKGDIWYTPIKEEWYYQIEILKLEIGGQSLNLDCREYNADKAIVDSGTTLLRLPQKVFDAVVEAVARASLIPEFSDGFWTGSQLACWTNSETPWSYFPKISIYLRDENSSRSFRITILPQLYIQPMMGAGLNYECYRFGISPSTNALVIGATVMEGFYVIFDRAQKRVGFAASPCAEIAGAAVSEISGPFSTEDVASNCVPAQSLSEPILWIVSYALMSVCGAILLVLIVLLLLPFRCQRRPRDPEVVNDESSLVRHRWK

β-secretase II (BACE2) = β-secretase II (BACE2) (Homo sapiens, UniProt Q9Y5Z0); assay: Biochemical assay, automated (CyclOps), BACE2; settings: automated CyclOps bioassay
Procedure: as §1, §2, §3

| AUTOMATED ASSAY BACE1 pIC50 (β-secretase I (BACE1)) | AUTOMATED ASSAY BACE2 pIC50 (β-secretase II (BACE2)) | AUTOMATED ASSAY BACE1 pIC50 (β-secretase I (BACE1); tested form: free base) | AUTOMATED ASSAY BACE2 pIC50 (β-secretase II (BACE2); tested form: free base) | Compound |
| --- | --- | --- | --- | --- |
| 8.28 | 8.51 |  |  | CNc1ccc(-c2cnc(OC)c3c2C[C@H]2CSC(N)=N[C@@]2(c2ccc(F)cc2F)C3)cc1O |
| 7.77 | 7.03 |  |  | COc1ncc(-c2c(C)noc2C)c2c1C[C@]1(c3cc(OCC(C)C)ccc3F)N=C(N)SC[C@@H]1C2 |
| 7.59 | 6.81 |  |  | COc1ncc(-c2cncc3ccccc23)c2c1C[C@]1(c3ccc(F)cc3F)N=C(N)SC[C@@H]1C2 |
| 7.2 | 6.41 |  |  | COc1ncccc1-c1cnc(OC)c2c1C[C@H]1CSC(N)=N[C@@]1(c1ccc(F)cc1F)C2 |
| 9 | 8.4 |  |  | COc1ncc(-c2ccc(F)cc2C)c2c1C[C@]1(c3cc(OCc4ccccn4)ccc3F)N=C(N)SC[C@@H]1C2 |
| 8.77 | 8.08 |  |  | COc1ccc(-c2cnc(OC)c3c2C[C@H]2CSC(N)=N[C@@]2(c2ccc(F)cc2F)C3)c(C)c1 |
| 9 | 6.56 |  |  | COc1ccc(-c2cnc(OC)c3c2C[C@H]2CSC(N)=N[C@@]2(c2cc(OCC4CCOCC4)ccc2F)C3)c(C)c1 |
| 6.53 | 5.34 |  |  | COc1ncc(-c2c(C)noc2C)c2c1C[C@]1(c3cc(OCC4CCCCC4)ccc3F)N=C(N)SC[C@@H]1C2 |
| 6.88 | 5.6 |  |  | COc1ncc(-c2c(C)noc2C)c2c1C[C@]1(c3cc(OCc4nn(C)c5ccccc45)ccc3F)N=C(N)SC[C@@H]1C2 |
| 8.44 | 8.33 |  |  | COc1ncc(-c2ccc(N3CCOCC3)c(F)c2)c2c1C[C@]1(c3ccc(F)cc3F)N=C(N)SC[C@@H]1C2 |
| 8.52 | 8.64 |  |  | COc1ncc(-c2cnn(-c3ccccc3)c2C)c2c1C[C@]1(c3ccc(F)cc3F)N=C(N)SC[C@@H]1C2 |
| 7.96 | 7.6 |  |  | COc1ncc(-c2ccc(N3CCCC3)nc2)c2c1C[C@]1(c3ccc(F)cc3F)N=C(N)SC[C@@H]1C2 |
| 6.15 | 5.2 |  |  | COc1ncc(-c2ccccc2OC(C)C)c2c1C[C@]1(c3ccc(F)cc3F)N=C(N)SC[C@@H]1C2 |
| 7.37 | 6.29 |  |  | COc1ncc(-c2ccccc2C)c2c1C[C@]1(c3cc(OCc4c(C)noc4C)ccc3F)N=C(N)SC[C@@H]1C2 |
| 6.59 | 6.06 |  |  | COc1ncc(-c2ccccc2Oc2ccccc2)c2c1C[C@]1(c3ccc(F)cc3F)N=C(N)SC[C@@H]1C2 |
| 7.6 | 6.28 |  |  | COc1ncc(-c2c(C)nn(C3CCCCO3)c2C)c2c1C[C@]1(c3ccc(F)cc3F)N=C(N)SC[C@@H]1C2 (single isomer, unassigned) [116] |
| 7.62 | 7.3 |  |  | COc1ncc(-c2cnc3c(c2)CCCC3)c2c1C[C@]1(c3ccc(F)cc3F)N=C(N)SC[C@@H]1C2 |
| 7.21 | 7.6 |  |  | COc1ncc(-c2ccnc(C)c2)c2c1C[C@]1(c3cc(OCc4ccccn4)ccc3F)N=C(N)SC[C@@H]1C2 |
| 6.77 | 6.17 |  |  | COc1ncc(-c2ccc(C)cc2-n2nc(C)cc2C)c2c1C[C@]1(c3ccc(F)cc3F)N=C(N)SC[C@@H]1C2 |
| 7.66 | 7.38 |  |  | COc1nc(-c2cnc(OC)c3c2C[C@H]2CSC(N)=N[C@@]2(c2ccc(F)cc2F)C3)ccc1-n1cnc(C)c1 |
| 6.55 | 5.47 |  |  | COc1ccc(C(C)C)cc1-c1cnc(OC)c2c1C[C@H]1CSC(N)=N[C@@]1(c1ccc(F)cc1F)C2 |

| AUTOMATED ASSAY BACE1 pIC50 (β-secretase I (BACE1)) | AUTOMATED ASSAY BACE2 pIC50 (β-secretase II (BACE2)) | AUTOMATED ASSAY BACE1 pIC50 (β-secretase I (BACE1); tested form: free base) | AUTOMATED ASSAY BACE2 pIC50 (β-secretase II (BACE2); tested form: free base) | Compound |
| --- | --- | --- | --- | --- |
| 7.6 | 7.54 |  |  | CCOCCOc1ccc(F)c([C@]23Cc4c(OC)ncc(-c5ccccc5F)c4C[C@H]2CSC(N)=N3)c1 |
| 8.05 | 7.18 |  |  | COc1ncc(-c2cn(C)c3ccccc23)c2c1C[C@]1(c3ccc(F)cc3F)N=C(N)SC[C@@H]1C2 |
| 7.62 | 6.61 |  |  | COc1ccc(-c2cnc(OC)c3c2C[C@H]2CSC(N)=N[C@@]2(c2cc(OCc4cccnc4)ccc2F)C3)c(C)c1 |
| 7.4 | 6.64 |  |  | COc1ncc(-c2cnc3c(c2)OCCN3C)c2c1C[C@]1(c3ccc(F)cc3F)N=C(N)SC[C@@H]1C2 |
| 7.92 | 7.57 |  |  | COc1ncc(-c2nn(C)cc2C)c2c1C[C@]1(c3ccc(F)cc3F)N=C(N)SC[C@@H]1C2 |
| 6.47 | 4.86 |  |  | COc1ccccc1-c1cnc(OC)c2c1C[C@H]1CSC(N)=N[C@@]1(c1cc(OCC3CCOCC3)ccc1F)C2 |
|  |  | 7.13 | 6.59 | COc1ncc(-c2cccc3c2ccn3C)c2c1C[C@]1(c3ccc(F)cc3F)N=C(N)SC[C@@H]1C2 |
| 7.33 | 7.16 |  |  | COc1ccc(-c2cnc(OC)c3c2C[C@H]2CSC(N)=N[C@@]2(c2cc(OCc4csc(C)n4)ccc2F)C3)c(F)c1 |
| 7.84 | 7.29 |  |  | COc1ccc(-c2cnc(OC)c3c2C[C@H]2CSC(N)=N[C@@]2(c2ccc(F)cc2F)C3)c(F)c1 |
| 8.05 | 6.84 |  |  | COc1ccc(-c2cnc(OC)c3c2C[C@H]2CSC(N)=N[C@@]2(c2cc(OCC4CCOCC4)ccc2F)C3)c(F)c1 |
| 6.88 | 5.76 |  |  | COc1ccc(OC)c(-c2cnc(OC)c3c2CC2CSC(N)=NC2(c2ccc(F)cc2F)C3)c1 (stereo not shown) |
| 7.27 | 6.99 |  |  | COc1ncc(-c2cnc(N(C)C)cn2)c2c1C[C@]1(c3ccc(F)cc3F)N=C(N)SC[C@@H]1C2 |
| 8.22 | 7.49 |  |  | COc1ncc(-c2ccc(F)cc2C)c2c1C[C@]1(c3cc(OCc4ccnc(C)c4)ccc3F)N=C(N)SC[C@@H]1C2 |
| 7.52 | 6.72 |  |  | COc1cc(-c2cnc(OC)c3c2C[C@H]2CSC(N)=N[C@@]2(c2ccc(F)cc2F)C3)cc(C(F)(F)F)c1 |
| 7.68 | 6.34 |  |  | COc1ncc(-c2c(C)nn(C3CCCCO3)c2C)c2c1C[C@]1(c3ccc(F)cc3F)N=C(N)SC[C@@H]1C2 (single isomer, unassigned) [117] |
| 7.68 | 7.31 |  |  | COc1ncc(-c2cc(N3CCCC3)ccn2)c2c1C[C@]1(c3ccc(F)cc3F)N=C(N)SC[C@@H]1C2 |
| 7.85 | 6.75 |  |  | COc1ncc(-c2ccccc2CC#N)c2c1C[C@]1(c3ccc(F)cc3F)N=C(N)SC[C@@H]1C2 |
| 6.85 | 5.96 |  |  | COc1ncc(-c2c(C)noc2C)c2c1C[C@]1(c3cc(OCc4ccccn4)ccc3F)N=C(N)SC[C@@H]1C2 |
| 7.29 | 7.2 |  |  | CCn1ccnc1COc1ccc(F)c([C@]23Cc4c(OC)ncc(-c5ccccc5F)c4C[C@H]2CSC(N)=N3)c1 |
| 6.24 | 6.24 |  |  | COc1cccc(COc2ccc(F)c([C@]34Cc5c(OC)ncc(-c6cc(OC)ccc6F)c5C[C@H]3CSC(N)=N4)c2)c1 |

Source: patent US20200010482A1, “INHIBITORS OF BETA SECRETASE” (Janssen Pharmaceutica NV, priority 2017, published 2020)
